Measured values taken from ChEMBL document CHEMBL1828623, “Overcoming hERG activity in the discovery of a series of 4-azetidinyl-1-aryl-cyclohexanes as CCR2 antagonists” (Bioorg Med Chem Lett, 2011).

Chains of the proteins cited; added tags and fusions are not shown. Lines headed by an entry give the natural chain unless they say otherwise; changes in a name come on top.
UniProt P41597: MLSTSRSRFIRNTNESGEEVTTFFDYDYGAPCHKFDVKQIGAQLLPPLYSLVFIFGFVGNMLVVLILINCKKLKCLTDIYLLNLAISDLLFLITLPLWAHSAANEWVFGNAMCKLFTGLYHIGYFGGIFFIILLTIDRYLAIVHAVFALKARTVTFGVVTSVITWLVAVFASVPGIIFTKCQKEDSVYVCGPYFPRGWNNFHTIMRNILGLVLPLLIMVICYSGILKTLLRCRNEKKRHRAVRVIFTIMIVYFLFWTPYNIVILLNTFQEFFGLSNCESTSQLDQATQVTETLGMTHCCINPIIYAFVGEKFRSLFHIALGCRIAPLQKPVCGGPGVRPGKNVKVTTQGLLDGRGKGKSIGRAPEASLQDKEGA

Target: C-C chemokine receptor type 2 (Homo sapiens, UniProt P41597)
Test: Displacement of [125I]-MCP1 from CCR2 in human THP1 cells after 2 hrs by microplate scintillation and luminescence counting
Assay type: cell-based, THP-1
Procedure, shortened: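 They were incubated with 0.5 nM ¹²⁵I-MCP-1 and varying test compound concentrations for 2 h at 30 °C. Cold MCP-1 defined nonspecific binding. Buffer-only blanks were subtracted and values compared with vehicle.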

Row | Compound | IC50
1 | CN(C)c1cccc([C@]2(O)CC[C@@H](N3CC(NC(=O)CNC(=O)c4cccc(C(F)(F)F)c4)C3)CC2)c1 | 15 nM
2 | Nc1cccnc1[C@H]1CC[C@H](N2CC(NC(=O)CNC(=O)c3cccc(C(F)(F)F)c3)C2)CC1 | 43 nM
3 | COC(=O)c1ccc([C@H]2CC[C@H](N3CC(NC(=O)CNC(=O)c4cccc(C(F)(F)F)c4)C3)CC2)cc1 | 80 nM
4 | CN(C)c1ncc([C@H]2CC[C@H](N3CC(NC(=O)CNC(=O)c4cccc(C(F)(F)F)c4)C3)CC2)cn1 | 31 nM
5 | O=C(CNC(=O)c1cccc(C(F)(F)F)c1)NC1CN([C@H]2CC[C@H](c3cnccn3)CC2)C1 | 44 nM
